## Ab-91 heavy chain CDR variants: yeast mating affinities

The target is the same throughout: PDVDLGDISGINAS, from the HR2 region of SARS-CoV-2 spike.

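The parent was found by panning a naive human phage display library on the peptide. In library AAYL51, one, two or three CDR residues were substituted; doubles and triples were drawn at random. Affinity was read by AlphaSeq, a pooled yeast mating assay with surface-displayed partners. The frequency of each diploid, read from paired DNA barcodes, reflects how well the two displayed proteins bind. Read counts were normalised to the haploid input and turned into Kd by a linear fit to BCL2-family pairs of known affinity, for each replicate. Each pool was mated in three replicate cultures.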

Ab-91 is the parent antibody, in scFv form: VL, then a 15-residue (Gly4Ser)3 linker, then VH. The light chain is unchanged in all variants.
VL: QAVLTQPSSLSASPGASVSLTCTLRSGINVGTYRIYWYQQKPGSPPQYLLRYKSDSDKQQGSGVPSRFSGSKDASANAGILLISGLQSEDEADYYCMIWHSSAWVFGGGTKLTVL
VH: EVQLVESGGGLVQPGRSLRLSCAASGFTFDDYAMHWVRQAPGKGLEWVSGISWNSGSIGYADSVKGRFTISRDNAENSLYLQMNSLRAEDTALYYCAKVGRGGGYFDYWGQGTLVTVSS

Positions count from residue 1 of the parent VH; M34L puts L in place of M. Scale: log10 of Kd in nM, estimated from mating counts; low values are strong binders. Replicates are averaged; those with no signal do not enter the mean. A pair that was not seen in that replicate is written "n.d."; this usually means weak binding, but a binder can also be missed. Background: pairings of library AAYL51 with three empty control strains gave a value in 21% of cases (median 4.54, 5th percentile 3.26). Values in that range, when seen in few replicates, are hard to tell from nonspecific mating. The control count says in how many pairings with the empty strains this scFv gave a signal, with their mean in brackets.

changes	replicates, log10 nM	mean log10 Kd (nM)	empty controls
M34L S57K Y108L	n.d. / 3.92 / n.d.	3.92	1 of 9 (5.02)
D30R S63F	2.69 / 3.02 / 2.71	2.81	5 of 9 (5.15)
S55I I58R V99K	n.d. / n.d. / n.d.	n.d.	0 of 9
N54K G100D Y105M	4.39 / 6.19 / 3.83	4.80	2 of 9 (4.62)
A33G S55T	4.14 / n.d. / n.d.	4.14	1 of 9 (2.55)
F106K	2.32 / 3.05 / 1.92	2.43	1 of 9 (4.64)
D30C N54C Y108S	n.d. / n.d. / n.d.	n.d.	0 of 9
A33D G100E Y105P	n.d. / 5.30 / 4.73	5.01	1 of 9 (4.26)
D31C G50H F106R	n.d. / n.d. / 4.35	4.35	1 of 9 (4.10)
A33E G50T Y60N	n.d. / n.d. / n.d.	n.d.	3 of 9 (4.26)
W53R S57Y I58Q	n.d. / n.d. / 3.55	3.55	3 of 9 (4.16)
D30A A33S R101P	1.00 / 1.01 / 0.56	0.86	3 of 9 (4.68)
M34E N54G D62M	5.24 / n.d. / n.d.	5.24	1 of 9 (5.03)
I58E F106I D107F	1.68 / 1.75 / 1.04	1.49	4 of 9 (5.01)
D31V A33R I51Q	n.d. / n.d. / n.d.	n.d.	0 of 9
F27Q D31T A33E	n.d. / n.d. / n.d.	n.d.	1 of 9 (3.70)
S55N S57D D107C	3.97 / n.d. / n.d.	3.97	2 of 9 (3.32)
T28I S63M G100I	4.08 / 4.48 / 3.97	4.18	7 of 9 (5.22)
F27W H35T	n.d. / n.d. / n.d.	n.d.	0 of 9
G50I S52F D62K	5.65 / n.d. / n.d.	5.65	2 of 9 (4.58)
H35A G102A Y108Q	n.d. / n.d. / n.d.	n.d.	1 of 9 (3.11)
G26C A61T R101G	n.d. / n.d. / 3.81	3.81	0 of 9
V99F G104E Y105K	4.81 / n.d. / n.d.	4.81	4 of 9 (4.71)
G26K N54P R101Q	n.d. / n.d. / n.d.	n.d.	2 of 9 (4.26)
R101A G104Q	2.93 / 3.05 / 3.23	3.07	3 of 9 (4.07)
I58K D62S Y108A	1.11 / 1.23 / 0.65	1.00	0 of 9
F29C D62R G104Y	n.d. / n.d. / n.d.	n.d.	0 of 9
D31Q S63Y	3.24 / 2.91 / n.d.	3.07	2 of 9 (4.09)
D30R S57M A61M	1.81 / 1.85 / 1.33	1.66	4 of 9 (5.06)
T28L I58R Y108A	1.13 / 1.12 / 0.72	0.99	2 of 9 (3.76)
T28G Y32M A61N	4.44 / 4.71 / n.d.	4.57	5 of 9 (4.73)
D31G K65G R101Y	5.04 / 6.12 / n.d.	5.58	3 of 9 (4.66)
M34D N54Y G59I	5.13 / n.d. / 5.35	5.24	5 of 9 (5.10)
A33R W53C Y108L	4.31 / 5.49 / n.d.	4.90	1 of 9 (4.16)
H35Y I51G G100H	5.01 / 4.39 / 4.00	4.46	2 of 9 (4.55)
F27M G56N D62M	n.d. / n.d. / n.d.	n.d.	0 of 9
G26P S63D G100E	4.09 / n.d. / n.d.	4.09	1 of 9 (3.70)
W53K K65Y F106A	n.d. / n.d. / n.d.	n.d.	0 of 9
A33F K65T F106M	n.d. / n.d. / n.d.	n.d.	0 of 9
I51Y D62H F106N	n.d. / n.d. / n.d.	n.d.	0 of 9
A33S A61D G103F	5.48 / n.d. / n.d.	5.48	5 of 9 (5.15)
D31I M34Q	3.85 / 5.69 / 4.63	4.72	7 of 9 (5.11)
T28R M34H G50F	n.d. / 4.99 / 4.86	4.92	2 of 9 (4.39)
K65G F106H	n.d. / 4.47 / n.d.	4.47	0 of 9
G100R F106P	n.d. / n.d. / n.d.	n.d.	1 of 9 (4.94)

Excerpt, the first 6 entries:

| changes | replicates, log10 nM | mean log10 Kd (nM) | empty controls |
|---|---|---|---|
| M34L S57K Y108L | n.d. / 3.92 / n.d. | 3.92 | 1 of 9 (5.02) |
| D30R S63F | 2.69 / 3.02 / 2.71 | 2.81 | 5 of 9 (5.15) |
| S55I I58R V99K | n.d. / n.d. / n.d. | n.d. | 0 of 9 |
| N54K G100D Y105M | 4.39 / 6.19 / 3.83 | 4.80 | 2 of 9 (4.62) |
| A33G S55T | 4.14 / n.d. / n.d. | 4.14 | 1 of 9 (2.55) |
| F106K | 2.32 / 3.05 / 1.92 | 2.43 | 1 of 9 (4.64) |

Values reported by Engelhart et al. 2022, doi:10.1038/s41597-022-01779-4 (FLAb copy).